Assay [1] has as its target T1, Glutamate receptor ionotropic, NMDA 1 (Rattus norvegicus, UniProt P35439). The experiment in a line: Inhibition of [3H]-MK-801 binding to a N-methyl-D-aspartic acid(NMDA) receptor in glycine-sensitive rat cortical membranes. The format is cell membranes, Membrane. Put shortly:
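Well-washed rat cortical membranes were given an added freeze/thaw step. [³H]MK-801 (2.5 nM) binding was run with 1 μM glutamate and 0.2 μM glycine for 2 h at 27 °C, then stopped by filtration. Nonspecific binding was defined with 0.5 μM MK-801. Values are IC50.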

For assay [2], the target named is T1, Glutamate receptor ionotropic, NMDA 1. The experiment in a line: Ability to displace strychnine-insensitive [3H]glycine binding to rat cortical membranes. Put shortly:
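Rat cortical membranes were prepared by a freeze/thaw Triton extraction. Incubation used [³H]glycine with 25 μg membrane fragments on ice for 1 h, ended by rapid filtration through GF/B filters. Nonspecific binding was defined with 100 μM D-serine.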

Usually IC50 stands for the concentration needed to halve the response being measured. A higher IC50 goes with weaker potency. What is called Ki is a measure of affinity in units of concentration, obtained from inhibition or displacement.

`O=C(O)c1cc(=O)c2ccccc2[nH]1` [TRANSTORINE] had an IC50 in assay [1] of 40.2 µM. In assay [2], this compound showed a Ki of 5.4 µM.

(Values after ChEMBL document CHEMBL1126124, “3-Phenyl-4-hydroxyquinolin-2(1H)-ones: potent and selective antagonists at the strychnine-insensitive glycine site on the N-methyl-D-aspartate receptor complex” (J Med Chem, 1992).)
